# Test results taken from ChEMBL document CHEMBL5380830, “Development and Therapeutic Implications of Tyrosine Kinase 2 Inhibitors” (J Med Chem, 2023).
# By UniProt entry, the sequences of proteins in these tests, tags left out. Where a name states a change or a piece, a line headed by the entry shows the natural chain unless it says otherwise.
# UniProt O60674: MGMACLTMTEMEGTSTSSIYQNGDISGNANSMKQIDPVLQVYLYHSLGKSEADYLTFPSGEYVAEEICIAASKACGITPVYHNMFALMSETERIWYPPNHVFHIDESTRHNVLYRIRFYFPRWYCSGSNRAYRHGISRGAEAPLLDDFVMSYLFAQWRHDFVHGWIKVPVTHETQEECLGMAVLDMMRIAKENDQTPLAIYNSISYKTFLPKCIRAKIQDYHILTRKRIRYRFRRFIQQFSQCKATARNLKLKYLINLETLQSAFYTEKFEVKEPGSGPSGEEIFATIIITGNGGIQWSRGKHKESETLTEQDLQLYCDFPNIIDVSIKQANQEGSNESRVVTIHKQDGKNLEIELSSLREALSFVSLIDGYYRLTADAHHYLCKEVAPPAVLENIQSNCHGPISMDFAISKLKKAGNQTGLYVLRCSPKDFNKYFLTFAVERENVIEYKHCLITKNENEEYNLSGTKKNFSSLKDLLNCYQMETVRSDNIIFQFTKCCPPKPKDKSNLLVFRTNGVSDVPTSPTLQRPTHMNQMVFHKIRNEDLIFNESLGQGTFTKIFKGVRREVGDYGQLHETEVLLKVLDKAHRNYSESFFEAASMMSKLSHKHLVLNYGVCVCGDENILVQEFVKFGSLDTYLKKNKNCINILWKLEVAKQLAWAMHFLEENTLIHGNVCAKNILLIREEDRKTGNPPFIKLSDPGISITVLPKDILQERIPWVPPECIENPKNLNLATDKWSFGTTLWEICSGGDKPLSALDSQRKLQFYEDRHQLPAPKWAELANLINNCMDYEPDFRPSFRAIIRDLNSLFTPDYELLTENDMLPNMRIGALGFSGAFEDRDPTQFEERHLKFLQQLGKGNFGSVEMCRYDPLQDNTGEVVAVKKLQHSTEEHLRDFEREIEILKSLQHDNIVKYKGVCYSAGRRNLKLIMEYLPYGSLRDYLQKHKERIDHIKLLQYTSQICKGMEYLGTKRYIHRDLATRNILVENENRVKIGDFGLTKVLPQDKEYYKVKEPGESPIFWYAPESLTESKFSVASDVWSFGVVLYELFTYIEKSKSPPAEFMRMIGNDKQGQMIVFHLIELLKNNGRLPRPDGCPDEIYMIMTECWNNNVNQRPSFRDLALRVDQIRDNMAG
# UniProt P29597: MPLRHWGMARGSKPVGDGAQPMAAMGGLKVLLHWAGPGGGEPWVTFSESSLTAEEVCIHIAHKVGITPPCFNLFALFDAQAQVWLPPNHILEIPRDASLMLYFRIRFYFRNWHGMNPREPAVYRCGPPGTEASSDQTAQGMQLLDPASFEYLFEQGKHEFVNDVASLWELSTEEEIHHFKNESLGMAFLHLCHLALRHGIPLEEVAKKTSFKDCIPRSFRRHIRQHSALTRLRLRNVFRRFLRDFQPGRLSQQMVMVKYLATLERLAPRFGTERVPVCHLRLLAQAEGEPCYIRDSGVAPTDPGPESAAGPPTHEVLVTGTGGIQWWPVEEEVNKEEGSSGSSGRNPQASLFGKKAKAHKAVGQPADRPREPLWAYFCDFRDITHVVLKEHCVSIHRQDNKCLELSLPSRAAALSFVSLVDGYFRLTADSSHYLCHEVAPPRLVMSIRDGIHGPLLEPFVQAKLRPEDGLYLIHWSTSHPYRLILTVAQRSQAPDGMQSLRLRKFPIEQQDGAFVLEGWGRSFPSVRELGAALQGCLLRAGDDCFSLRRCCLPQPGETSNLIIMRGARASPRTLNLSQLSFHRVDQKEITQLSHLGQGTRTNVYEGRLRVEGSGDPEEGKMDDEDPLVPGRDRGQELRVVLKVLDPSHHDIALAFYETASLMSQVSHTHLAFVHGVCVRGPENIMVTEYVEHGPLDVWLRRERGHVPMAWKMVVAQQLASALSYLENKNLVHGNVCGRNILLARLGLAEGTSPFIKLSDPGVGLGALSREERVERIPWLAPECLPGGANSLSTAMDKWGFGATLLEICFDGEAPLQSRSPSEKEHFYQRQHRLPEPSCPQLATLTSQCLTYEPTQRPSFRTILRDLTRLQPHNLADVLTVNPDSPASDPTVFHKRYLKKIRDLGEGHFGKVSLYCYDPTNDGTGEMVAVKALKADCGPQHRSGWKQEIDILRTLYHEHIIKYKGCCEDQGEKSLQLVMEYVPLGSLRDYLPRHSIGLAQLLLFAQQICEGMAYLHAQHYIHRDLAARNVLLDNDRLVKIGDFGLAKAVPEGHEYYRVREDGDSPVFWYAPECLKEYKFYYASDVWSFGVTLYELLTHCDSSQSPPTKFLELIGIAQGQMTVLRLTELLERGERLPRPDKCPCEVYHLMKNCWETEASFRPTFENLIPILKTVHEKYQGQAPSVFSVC
# Columns and labels:
# [1] = target: Tyrosine-protein kinase JAK2 (Homo sapiens, UniProt O60674); experiment: Inhibition of JAK2 JH1 (unknown origin) at 10 uM relative to control
# [2] = target: T1, Non-receptor tyrosine-protein kinase TYK2 (Homo sapiens, UniProt P29597); experiment: Binding affinity to human wild-type partial length TYK2 JH2 (G556 to D888 residues) expressed in mammalian expression system by KINOMEscan assay
# [3] = target: T1, Non-receptor tyrosine-protein kinase TYK2; experiment: Inhibition of TYK2 JH1 (unknown origin) at 10 uM relative to control
smiles,measurement,setting,value
CNc1cc(Nc2cccn(C3CC(F)(F)C3)c2=O)nc2c(C(=O)N[C@@H]3CCC[C@@H](O)C3)cnn12,inhibition,[1],< 50%
same,Kd,[2],< 0.2 nM
same,inhibition,[3],< 50%
